Measured affinities in a library of Ab-14 light chain variants

Reference: Engelhart et al. 2022, doi:10.1038/s41597-022-01779-4. File: FLAb, binding data.

Target: peptide PDVDLGDISGINAS, taken from heptad repeat 2 (HR2) of SARS-CoV-2 spike.

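Phage display of a naive human antibody library on the peptide gave the parent. Library AAYL50 holds single substitutions and randomly drawn double and triple substitutions in the CDRs. Affinity was read by AlphaSeq, a pooled yeast mating assay with surface-displayed partners. The frequency of each diploid, read from paired DNA barcodes, reflects how well the two displayed proteins bind. Read counts were normalised to the haploid input and turned into Kd by a linear fit to BCL2-family pairs of known affinity, for each replicate. Each pool was mated in three replicate cultures.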

Parent scFv Ab-14: VH joined to VL by three GGGGS repeats. Changes lie in the light chain CDRs alone.
VH: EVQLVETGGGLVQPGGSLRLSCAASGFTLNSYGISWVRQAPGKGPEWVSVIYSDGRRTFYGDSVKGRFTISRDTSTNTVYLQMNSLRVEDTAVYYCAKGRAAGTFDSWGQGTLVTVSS
VL: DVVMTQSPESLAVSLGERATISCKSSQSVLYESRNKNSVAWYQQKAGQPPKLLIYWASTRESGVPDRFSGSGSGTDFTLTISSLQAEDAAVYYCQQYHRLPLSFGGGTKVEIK

Substitutions are numbered in sequence along the VL above, starting at 1 (not Kabat).
Values are apparent Kd, the geometric mean of the replicates that gave a signal; lower means stronger binding.
A pair that was not seen in any replicate is written "no signal"; this usually means weak binding, but a binder can also be missed.
Parent in this assay: reference entry 4.4 nM, copy in this library 48 nM.
As a blank, each scFv also met three strains without target: over library AAYL50, 18% of these pairings were detected, typically at 15 µM and seldom below 970 nM.

| changes | Kd (apparent) | detected |
|---|---|---|
| R34C+N35D+T59W | 140 nM | 3 of 3 |
| S33T+W56Q+L102G | 4.5 nM | 3 of 3 |
| A40P+T59K+Q95E | no signal | 0 of 3 |
| S25A+S33H+V39G | no signal | 0 of 3 |
| S25R+V39F+Q95E | 130 µM | 1 of 3 |
| N37M+Y97S | 890 nM | 1 of 3 |
| L30F+R60C+E61N | no signal | 0 of 3 |
| S25V+S26Q+T59H | 910 pM | 3 of 3 |
| S28N+Y31W+R34F | 15 nM | 3 of 3 |
| A57M+S58H+H98K | 2.8 µM | 1 of 3 |
| R34Q+N35S+R99M | 7.8 nM | 3 of 3 |
| L30M+N35W+R99E | 120 nM | 3 of 3 |
| K36C+S38G+Y97M | 14 µM | 2 of 3 |
| N35F+L100R+L102R | 18 nM | 3 of 3 |
| E32M+S62D+Q96V | 750 nM | 1 of 3 |
| S58D+Q96S+H98N | 33 nM | 3 of 3 |
| K36F+N37H+A40S | 590 µM | 1 of 3 |
| K24R+Q96T+L100H | 24 nM | 3 of 3 |
| S33N+S58I+Q95M | no signal | 0 of 3 |
| W56E+Q96T+L102D | 1.6 nM | 3 of 3 |
| S28M+R34C+S58G | 3.6 µM | 3 of 3 |
| N37A+A57Y+R60P | no signal | 0 of 3 |
| K24R+K36F+Q96H | 7.2 nM | 3 of 3 |
| S28K+Y97E+L102S | no signal | 0 of 3 |
| S26N+Q27L | 110 nM | 3 of 3 |
| Q27S+R99V+L102Q | 150 nM | 3 of 3 |
| L30R+S58T+S62N | 450 nM | 1 of 3 |
| S33Q+R60Q+L100W | 66 µM | 2 of 3 |
| A40V+S58N+Y97G | no signal | 0 of 3 |
| R34P+N37C+S62K | no signal | 0 of 3 |
| V39R+Q95C+L102C | no signal | 0 of 3 |
| N35C+S38A+T59C | 350 nM | 3 of 3 |
| V29G+E32K+R34C | 1.1 µM | 2 of 3 |
| E32T+W56F+S62K | 42 nM | 3 of 3 |
| N37H+A40T+A57H | 2.8 µM | 2 of 3 |
| V29G+N35V+K36E | 6.2 nM | 3 of 3 |
| N35W+L100D | 110 nM | 3 of 3 |
| S26Q+Y97R+L100Y | 12 µM | 2 of 3 |
| K36E+Q96D+S103I | 12 nM | 3 of 3 |
| S38W+A40L+S103V | 130 µM | 2 of 3 |
| S62C+R99E | 43 nM | 3 of 3 |
| K24D+Q27P+Q95R | 4.7 µM | 1 of 3 |
| R34F+S62Q+R99A | no signal | 0 of 3 |
| S33K+A40T+S103A | 33 µM | 2 of 3 |
| S26L+R34I+S103W | 2.1 µM | 3 of 3 |
| S26Q+Q27A+E32R | 32 nM | 2 of 3 |
| E61A+Y97W+R99Q | no signal | 0 of 3 |
| S28C+Q95A+R99M | 19 µM | 2 of 3 |
| S26Q+A57T+Q96G | 18 µM | 3 of 3 |

The closing 8 entries, repeated:

| changes | Kd (apparent) | detected |
|---|---|---|
| K24D+Q27P+Q95R | 4.7 µM | 1 of 3 |
| R34F+S62Q+R99A | no signal | 0 of 3 |
| S33K+A40T+S103A | 33 µM | 2 of 3 |
| S26L+R34I+S103W | 2.1 µM | 3 of 3 |
| S26Q+Q27A+E32R | 32 nM | 2 of 3 |
| E61A+Y97W+R99Q | no signal | 0 of 3 |
| S28C+Q95A+R99M | 19 µM | 2 of 3 |
| S26Q+A57T+Q96G | 18 µM | 3 of 3 |